# Results from patent publication US12180508B2, “Method of preparing in vitro-matured human intestinal organoids and use thereof” (KOREA RESEARCH INSTITUTE OF BIOSCIENCE AND BIOTECHNOLOGY, priority 2018, dated 2024).
# How the values were obtained:
# STAT3 (Y705) = test: Human phospho-kinase array of IL-2-treated hIOs; format: cell-based; details: hIOs treated with 1 ng/ml rhIL-2 vs non-treated hIOs
# Description: Protein phosphorylation was quantified using a Proteome Profiler Human Phospho-Kinase Array Kit (ARY003, R&D Systems) according to the manufacturer's instructions and a known method (Human molecular genetics 23, 1802-1816 (2014)). Protein extracts were prepared from hIOs which were co-cultured with human T lymphocytes and treated with 1 ng/ml rhIL-2. Non-treated hIOs were used as a control group. The phospho-kinase array membranes were blocked, incubated with 200 μg of total protein from hIOs overnight at 4° C., and then incubated with cocktails of biotinylated detection antibodies for 2 hr at room temperature. Signal was detected with an ECL Plus Western Blotting Detection System (GE Healthcare, Buckinghamshire, UK), and phosphorylated kinase levels were quantified by densitometry with Image Gauge software (Fuji Photo Film GMBH).
# hIOs [1] = test: Microarray gene expression profiling of hIOs versus hSI; format: cell-based, human
# Description: Microarray experiments were conducted according to the manufacturer's instructions using a low RNA input linear amplification kit, cRNA cleanup module, and one-color (Cy3) Whole Human Genome Microarray 4X44K (Agilent. Technology, Santa Clara, CA) by a known method. Gene expression data were processed using GeneSpring software (Agilent). The data were normalized using global scale normalization. Differentially expressed genes were selected on the basis of a fold-change greater than 2.
# Microarray data analysis was performed as described in Experimental Example 9. Hierarchical clustering and the heat map were generated using MeV v 4.9.0 software. Gene functions were annotated using GeneCard database (genecards.org). Other bioinformatic analyses were performed using IPA analysis software (Ingenuity systems, Redwood City, CA, USA), PANTHER (Protein ANalysis THrough Evolutionary Relationships, http://www.pantherdb.org) database, and DAVID Bioinformatics Resources 6.7 (david.abcc.ncifcrf.gov/). Differentially phosphorylated proteins were used for analysis and visualization of functional interaction networks. Core pathways in the network were further analyzed using Reactome (Reactome FI software, Version 5.0.0 beta, apps.cytoscape.org/apps/reactomefis). The functionally grouped gene ontology (GO)/pathway was analyzed using Cytoscape software platform (version 3.3.0, http://www.cytoscape.org/what_is_cytoscape.html) with ClueGO plug-in (Version 2.2.5, apps.cytoscape.org/apps/cluego).
# hIOs [2] = test: qPCR of intestinal maturation markers in hIOs; format: cell-based, human; details: co-cultured or IL-2-treated hIOs
# Description: Total RNA was extracted from cells using an RNeasy Kit (Qiagen), and reverse-transcribed using a Superscript III cDNA synthesis kit (Invitrogen). qRT-PCR was performed by a method disclosed in a 7500 Fast Real-time PCR system (Applied Biosystems, Foster City, CA, USA) (Cho et al., Oncotarget 6, 23837-23844, 2015). All experiments were performed in triplicate, and CT value of each target gene was calculated using a software provided by the manufacturer. Nucleotide sequences of the used primers are as in Table 1.
# hIOs [3] = test: GIP hormone secretion assay (ELISA) in hIO culture supernatant; format: cell-based, human; details: co-cultured or IL-2-treated hIOs, 48 hr supernatant
# Description: Secretion of gastric inhibitory polypeptide (GIP) hormone expressed by enteroendocrine cells was examined to examine functionality of mature enteroendocrine cells. First, 15 organoids under different conditions were placed on culture plates, and washed with PBS five times, and hIO culture medium was added, followed by incubation for 48 hr at 37° C. Thereafter, the supernatant was harvested, and quantity of GIP in the culture was measured using a total GIP ELISA kit (Merckmillopore). Then, gDNA of the total amount of hIOs used in the experiment was extracted using a DNeasy kit (Qiagen), and the quantity of GIP hormone relative to DNA was calculated and schematized.
# hPSC-derived hIOs = test: Growth / size (surface area, budding) of hPSC-derived hIOs; format: cell-based, human; details: IL-2 at 1 ng/ml to 4 ng/ml
# Description: To assess the effect of interleukin 2 (hereinafter, referred to as IL-2) on hIOs, prepared rhIL-2 (R&D Systems) was added daily to hIO medium at a concentration of 1 ng/ml (approximately 13 U/ml). Further, to inhibit IL-2 signaling, hIOs were treated with 1 μg/ml of anti-IL-2Rα monoclonal antibody (R&D Systems). To block IL-2 downstream signal transduction, a mTOR inhibitor Rapamycin (10 nM, Sigma-Aldrich), a STAT3 inhibitor S31-201 (10 μM, Sigma-Aldrich), or Stattic (1 μM, Sigma-Aldrich) was added. To estimate the size of hIOs, surface areas of horizontal cross-sections of hIOs were measured.
substance,measurement,setting,value
IL-2: recombinant human interleukin 2 (R&D Systems) added daily to hIO medium,"phosphorylation of STAT3 (Y705), increase compared with the control",STAT3 (Y705),3.3 fold
same,share of 40 enzymes and transporters upregulated,hIOs [1]; IL-2-treated hIOs compared with control hIOs,62.5 S
same,number of 40 enzymes and transporters upregulated,"hIOs [1]; IL-2-treated hIOs compared with control hIOs, at least 2-fold",25
same,genes shifted towards the profile of hSI,"hIOs [1]; IL-2-treated hIOs, two-fold cut-off",49.8
same,"expression levels of DEFA5, DEFA6, LYZ, DPP4 and LCT",hIOs [2],upregulated
same,"amount of secreted GIP, increase compared with the control",hIOs [3],about 45 fold
same,size of hIO,hPSC-derived hIOs,significantly increased
